In patent EP4847524A2, “FATTY ACID CONJUGATED CYCLIC PEPTIDES” (dated 2026):
Read-outs that look alike come from different tables or passages of the source.

By UniProt entry, the sequences of proteins in these tests, tags left out.
UniProt Q13324, whole entry: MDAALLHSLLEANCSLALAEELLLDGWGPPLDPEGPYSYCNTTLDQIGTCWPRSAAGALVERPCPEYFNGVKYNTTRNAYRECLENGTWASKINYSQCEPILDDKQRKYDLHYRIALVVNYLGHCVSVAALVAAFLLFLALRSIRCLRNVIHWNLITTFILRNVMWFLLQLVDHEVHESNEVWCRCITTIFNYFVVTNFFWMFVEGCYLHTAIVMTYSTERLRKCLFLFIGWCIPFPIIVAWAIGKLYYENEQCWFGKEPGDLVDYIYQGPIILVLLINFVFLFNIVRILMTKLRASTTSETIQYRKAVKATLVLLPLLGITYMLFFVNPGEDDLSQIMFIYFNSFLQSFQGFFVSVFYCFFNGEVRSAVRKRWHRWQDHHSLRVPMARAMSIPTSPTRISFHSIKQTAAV

Columns and labels:
[1] = Sample preparation and solubility (visual observation, RP-HPLC soluble content)
Experimental: Preliminary screening methods for the evaluation of multiple fatty acid peptide analogs included a two-stage approach. First, formulations were prepared at target concentrations of approximately 10, 20, 40 or 50 mg/mL in 150 mM phosphate, pH 7.5. These formulations were titrated using NaOH, as needed, to the target pH 7.5 and were evaluated (visual assessment only). For visibly insoluble formulations, an additional buffer was added to dissolve the peptide. Once dissolved, all formulations were filtered through a 0.2 µm PVDF filter membrane and analyzed by RP-HPLC for soluble content. Formulations were incubated at 4°C, room temperature, and 37°C. At day 0 and 7 the formulations were analyzed by visual observation for solubility, size exclusion chromatography (SEC) for aggregation, & RP-HPLC for chemical stability studies.

hCRF-R2 = hCRF-R2 (Homo sapiens, UniProt Q13324); experiment: cAMP assay (HitHunter), antagonist IC50 in CHO-K1 hCRF-R2 cells, with or without BSA
Experimental: Human CHO-KI CRF-R1 (hCRF-R1; Catalog # 95-0047C2) and human CHO-K1 CRF2 (hCRF-R2; Catalog # 95-0048C2) cell lines were purchased from Eurofins.
CHO-K1 Complete Media: DMEM Version (complete medium):Dulbecco's Minimal Essential Media with High Glucose, 4.5% (DMEM-HG), 10% [vol] U.S. Sourced, Certified Fetal Bovine Serum (FBS), and 1X [standard mammalian cell culture concentration] of the following: L-Glutamine, Non-Essential Amino Acids, Hepes Buffer (10 mM final concentration) and a standard antibiotic/antimycotic mix (penicillin, streptomycin, amphotericin B (Gibbco Cat # 15240062).
CHO-K1 Complete Media - HF12 Version is the same as the CHO-K1 Complete Media, DMEM Version (complete medium), except that Ham's F-12 was used as the base media. Cell Plating 2 Reagent (CPR2) - Eurofins DiscoverX Assay Complete Cell Plating 2 Reagent (Cat# 93-0563R2A). Lipofecamine LTX (Invitrogen™ Cat# 15338100). FuGENE 6 (Promega Cat# E2691). Bovine Albumin Fraction V, Fatty Acid Free: MP Biomedicals, Cat. 152401, Lot. S8210.
On Day 0, cryovial(s) containing the frozen cells (approx. 1.0E+6 cells/vial) stored in liquid nitrogen were removed and thawed in a 37°C water bath for 60 seconds and then diluted into fresh CHO-K1 Complete Media that was pre-warmed to 37°C. […]
Eurofins Assay Ready (division arrested) versions of the above hCRF-R1 and hCRF-R2 (hCRF-R1 and hCRF-R2 eXpress cell/assay kits) cells were removed from liquid nitrogen storage and thawed in a 37°C water bath for 30 seconds and then diluted into fresh Cell Plating 2 Reagent that was pre-warmed to 37°C. […]
cAMP was determined utilizing a DiscoverX HitHunter assay Enzyme Fragment Complementation (EF) technology purchased from Eurofins as described in the manufacturing instructions with some adjustments. IC50's were calculated from antagonist dose response curves utilizing interpolated cAMP levels and/or relative light unit (RLU) data. In addition, eXpress assay ready cAMP kits were also utilized with hCRF-R1 and hCRF-R2 division arrested cells according to the manufacturing instructions. […]

Solubility 150 mM phosphate pH 7.4 (mg/mL) ([1]; 150 mM phosphate pH 7.4): ≥45 mg/mL
solubility ([1]; in either 10mM phosphate at pH 7 or 10mM TRIS at pH8): > 100 mg/mL
solubility (Table 15) ([1]; preliminary screening formulations, 150 mM phosphate, pH 7.5): ≥ 45 mg/mL
IC50 (hCRF-R2; read-out: CRFR2 (IC50 nM) BSA (0.1%), BSA (0.1%)): 89 nM
IC50 (hCRF-R2; read-out: CRFR2 (IC50 nM) No Albumin, No Albumin): 3.1 nM
IC50 (hCRF-R2; read-out: CRFR2 IC50 in BSA, assay buffer containing 0.1% BSA, agonist hUCN1 1 nM): 89 nM
Substance: Ac-Asp-Leu-Thr-D-Phe-His-Leu-Leu-Arg-Glu-Val-Leu-Glu-Nle-K*-Arg-Glu-Glu-Gln-cVal-Ala-Gln-E#-Ala-Glu-K#-Asn-Arg-Lys-Leu-Nle-Glu-cVal-Ala-CONH2
